Results on one compound are retold here after PMC12631985 (Environmental Science & Technology, 2025).

The subject of the experiment is AR mRNA. In words: Quantitative RT-PCR for DHT-induced AR mRNA expression in 22Rv1/MMTV-GRKO cells. The conditions noted are these: with DHT; highest noncytotoxic concentration (≥80% viability); n = 3. Type of experiment: cell-based, human.

The structures appear in SMILES notation.

For the compound `CC(O)(CS(=O)(=O)c1ccc(F)cc1)C(=O)Nc1ccc(C#N)c(C(F)(F)F)c1` (stereo not shown) [bicalutamide, reference compound], the “reduction in AR mRNA levels compared to the DHT-only treatment group” value was found to be 62.5%.
